# Data published in patent US20250186563A1, “UNIT DOSE FORMULATION OF ANTIDOTES FOR FACTOR XA INHIBITORS AND METHODS OF USING THE SAME” (Alexion Pharmaceuticals, Inc., priority 2009, published 2025).
# “Also recorded” adds a separate entry of the source.
# B1: r-Antidote: fXa derivative lacking the 6-39 amino acid residues of SEQ ID NO. 3, expressed in CHO cells, after removal of the linker (SEQ ID NO. 13) (protein)
# chain: ANSFLFWNKYKDGDQCETSPCQNQGKCKDGLGEYTCTCLEGFEGKNCELFTRKLCSLDNGDCDQFCHEEQNSVVCSCARGYTLADNGKACIPTGPYPCGKQTLERIVGGQECKDGECPWQALLINEENEGFCGGTILSEFYILTAAHCLYQAKRFKVRVGDRNTEQEEGGEAVHEVEVVIKHNRFTKETYDFDIAVLRLKTPITFRMNVAPACLPERDWAESTLMTQKTGIVSGFGRTHEKGRQSTRLKMLEVPYVDRNSCKLSSSFIITQNMFCAGYDTKQEDACQGDAGGPHVTRFKDTYFVTGIVSWGEGCARKGKYGIYTKVTAFLKWIDRSMKTRGLPKAKSHAPEVITSSPLK
# System: blood loss due to fondaparinux
# Test: Rat tail transection blood loss model, fondaparinux
# Type: in vivo, Sprague-Dawley rats
# Conditions: fondaparinux 25 mg/kg IV bolus; r-Antidote 6 mg bolus + 6 mg/hr infusion
# Protocol: The effect of r-Antidote on reversal of blood loss due to enoxaparin anticoagulation was tested in Sprague-Dawley rats. Specifically, rat tail transection blood loss model for restoration of hemostasis was employed. The enoxaparin was dosed by IV bolus (4.5 mg/kg). The r-Antidote was administered as two doses: 1) a 2 milligram bolus and then infused at a rate of 2 mg/hour for a total of 15 minutes; and 2) a 4 milligram bolus and then infused at a rate of 4 mg/hour for a total of 15 minutes. Blood loss reversal was also tested using the vehicle. Immediately after the bolus injection of the r-Antidote was complete and the infusion started, the tip of the rat's tail was transected with a scalpel blade and placed into a vial containing physiological saline at 37° C. The tail was allowed to bleed for 15 minutes. The resulting blood volume was determined by lysis of red blood cells, measuring the hemoglobin concentration spectrophotometrically and estimating the blood volume by comparison against a standard curve. Decreased blood loss correlated with both r-Antidote plasma concentrations (r^2=0.80) and a reduction of anti-fXa units (r^2=0.89). The results are provided in FIG. 38 (AD refers to the r-Antidote).
# The r-Antidote was provided as a 6 mg bolus and then another 6 g/hr for 15 min as an infusion.
molecule,measurement,value
B1,reversal of blood loss due to fondaparinux,completely corrected; also recorded: completely reversed
